# Columns and labels:
# human CD20 [1] = target: T1, human CD20 (human, UniProt P11836 1-297); assay: cell-based or functional assay
# T1 sequence (looked up): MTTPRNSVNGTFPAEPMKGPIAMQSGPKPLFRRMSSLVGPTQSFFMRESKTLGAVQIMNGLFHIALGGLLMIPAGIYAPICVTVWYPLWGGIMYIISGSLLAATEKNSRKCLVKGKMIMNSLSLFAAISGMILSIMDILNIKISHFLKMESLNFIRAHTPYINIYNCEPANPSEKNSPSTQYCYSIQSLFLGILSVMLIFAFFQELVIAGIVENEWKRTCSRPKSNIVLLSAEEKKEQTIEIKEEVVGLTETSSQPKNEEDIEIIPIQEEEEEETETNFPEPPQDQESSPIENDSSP
# human CD20 [2] = target: T1, human CD20; assay: flow cytometry, 300-19 cells transfected with wild type human CD20, MFI against antibody concentration
binder,measurement,setting,value
"2F2 (antibody, V domains shown) VH: EVQLVESGGGLVQPGRSLRLSCAASGFTFNDYAMHWVRQAPGKGLEWVSTISWNSGSIGYADSVKGRFTISRDNAKKSLYLQMNSLRAEDTALYYCAKDIQYGNYYYGMDVWGQGTTVTVSS VL: EIVLTQSPATLSLSPGERATLSCRASQSVSSYLAWYQQKPGQAPRLLIYDASNRATGIPARFSGSGSGTDFTLTISSLEPEDFAVYYCQQRSNWPITFGQGTRLEIK","EC50 of ADCC, DOHH-2 cells, human NK cells, LDH release",human CD20 [1],0.6 ng/mL
same,"EC50 of ADCC, Granta-519 cells, human NK cells, LDH release",human CD20 [1],0.47 ng/mL
same,"EC50 of ADCC, JVM-13 cells, human NK cells, LDH release",human CD20 [1],0.17 ng/mL
same,"EC50 of ADCC, Ramos cells, human NK cells, LDH release",human CD20 [1],1.2 ng/mL
same,"EC50 of ADCC, SU-DHL-4 cells, human NK cells, LDH release",human CD20 [1],0.6 ng/mL
same,"EC50 of ADCC, WSU-DLCL-2 cells, human NK cells, LDH release",human CD20 [1],0.56 ng/mL
same,"EC50 of CDC, Daudi cells, 5% human complement",human CD20 [1],340 ng/mL
same,"EC50 of CDC, Raji cells, 5% human complement",human CD20 [1],130 ng/mL
same,"EC50 of CDC, Ramos cells, 5% human complement",human CD20 [1],50 ng/mL
same,"EC50 of CDC, SU-DHL-4 cells, 5% human complement",human CD20 [1],95 ng/mL
same,EC50 (read off the curve),human CD20 [2],~600 pM

# Source: patent US20110195022A1 (IMMUNOGEN, published 2011)
